{"source": "paper PMC1892056", "about": "“Barusiban suppresses oxytocin-induced preterm labour in non-human primates” (BMC Pregnancy and Childbirth, 2007)", "origin": "cited, not measured here", "system": "pregnant cynomolgus monkeys", "parameters": "method as in PMID 16914691", "conditions": "fenoterol 3 μg kg^-1 h^-1 continuous infusion; OT control about fourfold increase", "from_the_text": "Background Preterm labour (PTL) is a major cause of neonatal mortality and morbidity, and oxytocin (OT) antagonists are potential tocolytics. Atosiban (TRACTOCILE) is a mixed vasopressin V1A/OT antagonist registered for acute treatment of PTL in Europe. […] Barusiban is a selective OT antagonist which has reached clinical development. A monkey model with OT-induced PTL was developed to compare barusiban and atosiban. In addition, the feasibility for long-term treatment of PTL with barusiban was explored."}
{"molecule": "CC(Cc1ccc(O)cc1)NCC(O)c1cc(O)cc(O)c1", "note": "(stereo not shown) [fenoterol, reference compound]", "values": [{"measurement": "Increase in overall IUP during OT infusion", "result": "increased approximately threefold"}]}
